Kd, koff and kon data for 1 substance are collected here from article PMC5566391.

Protein sequences, listed by entry. Tags and fused reporters are not part of them. Lines headed by an entry give the natural chain unless they say otherwise; changes in a name come on top.
UniProt P50591: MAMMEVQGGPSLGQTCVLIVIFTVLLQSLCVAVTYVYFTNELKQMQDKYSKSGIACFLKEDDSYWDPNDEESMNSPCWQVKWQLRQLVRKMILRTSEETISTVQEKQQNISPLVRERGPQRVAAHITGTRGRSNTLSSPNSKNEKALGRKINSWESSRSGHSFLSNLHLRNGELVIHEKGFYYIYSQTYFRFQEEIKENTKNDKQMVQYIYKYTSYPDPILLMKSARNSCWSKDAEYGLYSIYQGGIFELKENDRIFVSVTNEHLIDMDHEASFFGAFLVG

This assay addresses soluble DR5-Fc fusion protein (human) (UniProt O14763). Nature of the assay: BLI; biotinylated DR5-Fc (10 µg/mL) immobilised on streptavidin biosensors for 300 s; analytes in serial dilutions 15.4 nM-123.5 nM; dissociation in PBS; 25 °C, PBS; ForteBio Octet.

As to “TRAIL-Trimer fusion protein (from UniProt P50591 39-281) (ligand)”, the Kd is less than 1 pM, the koff is less than 1e-07 s⁻¹ and the association rate constant (kon) worked out at 81000 M⁻¹ s⁻¹.

As a reminder, the Kd is the concentration at which binding is half-saturated. Low readings indicate tighter binding, high ones weaker binding. In general, koff refers to a measure of how fast the partners let go of each other. High values mean fast dissociation, low ones slow dissociation. One may read the kon as the rate constant with which the complex forms. A higher kon goes with fast association.
